Only a part is listed here, and it is no random draw. Some tests of the compounds listed are not included; inactive here does not mean inactive elsewhere. Records with an inconclusive call do not appear. The source made the active and inactive calls. The call rests on the fitted dose curve; in most records, active means well fitted inhibition curve with a large enough effect (not every such curve was filed as active); inconclusive means small, poorly fitted or top-dose-only effect, or another doubt; inactive means no such curve, though single readings can be large or run the other way.
On the % scale 0 is the no-effect control and ±100 the full control effect.

Protein sequences, listed by entry. Tags and fused reporters are not part of them.
UniProt P15428, whole entry: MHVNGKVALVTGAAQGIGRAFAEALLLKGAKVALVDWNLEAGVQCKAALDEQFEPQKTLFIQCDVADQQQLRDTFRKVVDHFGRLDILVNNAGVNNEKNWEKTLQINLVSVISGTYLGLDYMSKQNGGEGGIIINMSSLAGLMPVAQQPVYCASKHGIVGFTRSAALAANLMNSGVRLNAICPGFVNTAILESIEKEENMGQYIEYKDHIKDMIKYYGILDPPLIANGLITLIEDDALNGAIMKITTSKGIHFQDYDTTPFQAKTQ

This test has as its target 15-hydroxyprostaglandin dehydrogenase [NAD(+)] (Homo sapiens) (UniProt P15428). Put plainly: qHTS Assay for Inhibitors of HPGD (15-Hydroxyprostaglandin Dehydrogenase). Further: test concentration not given here. Conditions: purified HPGD, NADH fluorescence kinetic, PGE2 substrate; hits give low values. (In general: Quantitative high-throughput screening tests each substance at several concentrations.)
With `CC(C)N1C(=O)CC2(CCN(CCOC(=O)C(O)(c3ccccc3)c3ccccc3)CC2)C1=O`, the activity change, negative = inhibition is inactive: -9.47%.

Source of the values: PubChem BioAssay AID894 (National Center for Advancing Translational Sciences (NCATS), 2007).
